Results reported in patent US20190125867A1, “THERAPEUTIC AGENT FOR SOLID CANCER” (IDAC THERANOSTICS, INC., priority 2014, published 2019).

How the values were obtained:
[1] = test system: mouse melanoma cell line B16F10; experiment: Tumor volume in C57BL/6 mice transplanted with melanoma cell line B16F10; assay type: in vivo; conditions: Example 7 (small molecule anticancer agents); Day 15; anti-CD4 0.2 mg Day 5, 9; OXA 10, GEM 20, CPA 10 mg/kg Day 5, 9, 12, 16; FIG. 23
Protocol: On Day −2 (two days before the cancer cell transplantation), Day 0 (=day of cancer cell transplantation), Day 3, Day 5, Day 9, or Day 12, 0.2 mg of an anti-CD4 antibody (GK1.5; an antibody known to be capable of causing depletion of CD4+ cells in the mouse body by the CDC activity; manufactured by BioXcell) was intraperitoneally administered at one time. The solid tumor diameter was measured on Day 14, and the tumor volume was calculated by short diameter×short diameter×long diameter×π/6.
On Day 5, 3.125 μg, 12.5 μg, 50 μg, or 200 μg of the anti-CD4 antibody was administered (negative control group: no antibody was administered).
The solid tumor diameter in each mouse was measured, and the tumor volume was calculated (short diameter×short diameter×long diameter×π/6).
Thereafter, antibody administration was carried out as follows (Day 0=day of cancer cell transplantation).
The tumor volume was calculated (short diameter×short diameter×long diameter×π/6) from the solid tumor diameter measured on Day 18.
The tumor volume was calculated (short diameter×short diameter×long diameter×π/6) from the solid tumor diameter measured on Day 15.
The tumor volume was calculated (short diameter×short diameter×long diameter×π/6) from the solid tumor diameter measured on Day 16.

[2] = 10 mg/kg twice a week for two weeks

In the case of O=C1[O][Pt]2([NH][C@@H]3CCCC[C@H]3[NH]2)[O]C1=O [OXA, Oxaliplatin], the “growth of solid tumor relative to control group” value [1] is reported as 46% and the “side effect observed in mice” value [2] is reported as “weight loss was observed”.
